IntAct's records for PubMed 25006247

B1: Apoptosis-associated speck-like protein containing a CARD (Homo sapiens), Q9ULZ3 (parent)
chain: MGRARDAILDALENLTAEELKKFKLKLLSVPLREGYGRIPRGALLSMDALDLTDKLVSFYLETYGAELTANVLRDMGLQEMAGQLQAATHQGSGAAPAGIQAPPQSAAKPGLHFIDQHRAALIARVTNVEWLLDALYGKVLTDEQYQAVRAEPTNPSKMRKLFSFTPAWNWTCKDLLLQALRESQSYLVEDLERS
partner: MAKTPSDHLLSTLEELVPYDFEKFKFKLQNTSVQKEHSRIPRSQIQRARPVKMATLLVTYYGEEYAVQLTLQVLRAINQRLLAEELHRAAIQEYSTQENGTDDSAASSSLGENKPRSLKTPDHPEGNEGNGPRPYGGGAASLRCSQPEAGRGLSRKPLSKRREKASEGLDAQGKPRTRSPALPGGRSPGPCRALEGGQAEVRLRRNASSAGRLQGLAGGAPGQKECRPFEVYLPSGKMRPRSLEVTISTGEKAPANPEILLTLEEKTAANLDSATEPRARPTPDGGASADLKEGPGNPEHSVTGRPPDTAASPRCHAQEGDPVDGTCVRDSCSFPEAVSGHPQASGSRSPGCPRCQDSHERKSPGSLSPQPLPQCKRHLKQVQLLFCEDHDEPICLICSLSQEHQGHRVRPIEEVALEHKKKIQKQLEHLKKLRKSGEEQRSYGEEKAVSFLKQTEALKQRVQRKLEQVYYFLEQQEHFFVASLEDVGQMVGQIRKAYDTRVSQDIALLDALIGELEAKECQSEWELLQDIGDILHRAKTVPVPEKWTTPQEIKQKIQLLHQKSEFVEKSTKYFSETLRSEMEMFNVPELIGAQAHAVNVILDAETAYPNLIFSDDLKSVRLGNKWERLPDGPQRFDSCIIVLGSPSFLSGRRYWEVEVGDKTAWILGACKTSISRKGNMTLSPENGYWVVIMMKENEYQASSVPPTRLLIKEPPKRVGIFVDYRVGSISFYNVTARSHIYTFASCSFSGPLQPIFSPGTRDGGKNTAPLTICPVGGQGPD

Variants of: B1
Details: with mefv_human MEFV

Row | effect of a mutation on the interaction | Variant
1 | disrupting interaction strength | MGRARDAILDALENLTAEELKKFKLKLLSVPLREGYGRIPAGALLSMDALDLTDKLVSFYLETYGAELTANVLRDMGLQEMAGQLQAATHQGSGAAPAGIQAPPQSAAKPGLHFIDQHRAALIARVTNVEWLLDALYGKVLTDEQYQAVRAEPTNPSKMRKLFSFTPAWNWTCKDLLLQALRESQSYLVEDLERS
2 | with no effect | MGRARDAILDALENLTAEELKKFKLKLLSVPLREGYGRIPRGALLSMDALDLTDKLVSFYLETYGAALTANVLRDMGLQEMAGQLQAATHQGSGAAPAGIQAPPQSAAKPGLHFIDQHRAALIARVTNVEWLLDALYGKVLTDEQYQAVRAEPTNPSKMRKLFSFTPAWNWTCKDLLLQALRESQSYLVEDLERS
3 | disrupting interaction strength | MGRARDAILDALENLTAEELKKFKLKLLSVPLREGYGRIPRGALLSMAALDLTDKLVSFYLETYGAELTANVLRDMGLQEMAGQLQAATHQGSGAAPAGIQAPPQSAAKPGLHFIDQHRAALIARVTNVEWLLDALYGKVLTDEQYQAVRAEPTNPSKMRKLFSFTPAWNWTCKDLLLQALRESQSYLVEDLERS
4 | with no effect | MGRARDAILDALENLTAEELKKFKLKLLSVPLREGYGRIPRGALLSMDALDLTDKLVSFYLETYGAELTANVLRDMGLQAMAGQLQAATHQGSGAAPAGIQAPPQSAAKPGLHFIDQHRAALIARVTNVEWLLDALYGKVLTDEQYQAVRAEPTNPSKMRKLFSFTPAWNWTCKDLLLQALRESQSYLVEDLERS
5 | with no effect | MGRARDAILDALENLTAEELKKFKLKLLSVPLREGYGRIPRGALLSMDALDLTDKLVSFYLETYGAELTANVLRDMGLQEMAGALQAATHQGSGAAPAGIQAPPQSAAKPGLHFIDQHRAALIARVTNVEWLLDALYGKVLTDEQYQAVRAEPTNPSKMRKLFSFTPAWNWTCKDLLLQALRESQSYLVEDLERS
6 | decreasing interaction strength | MGRARDAILDALENLTAEELKKFKLKLLSVPLREGYGRIPRGALLSMDALDLTAKLVSFYLETYGAELTANVLRDMGLQEMAGQLQAATHQGSGAAPAGIQAPPQSAAKPGLHFIDQHRAALIARVTNVEWLLDALYGKVLTDEQYQAVRAEPTNPSKMRKLFSFTPAWNWTCKDLLLQALRESQSYLVEDLERS
7 | disrupting interaction strength | MGRARDAILDALENLTAEELKKFKLKLLSVPLREGYGRIPRGALLSMDALALTDKLVSFYLETYGAELTANVLRDMGLQEMAGQLQAATHQGSGAAPAGIQAPPQSAAKPGLHFIDQHRAALIARVTNVEWLLDALYGKVLTDEQYQAVRAEPTNPSKMRKLFSFTPAWNWTCKDLLLQALRESQSYLVEDLERS
8 | with no effect | MGRARDAILDALENLTAEELKKFKLKLLSVPLREGYGRIPRGALLSMDALDLTDKLVSFYLEAYGAELTANVLRDMGLQEMAGQLQAATHQGSGAAPAGIQAPPQSAAKPGLHFIDQHRAALIARVTNVEWLLDALYGKVLTDEQYQAVRAEPTNPSKMRKLFSFTPAWNWTCKDLLLQALRESQSYLVEDLERS
9 | with no effect | MGRARDAILDALENLTAEELKKFKLKLLSVPLREGYGRIPRGALLSMDALDLTDKLVSFYLETYGAELTANVLADMGLQEMAGQLQAATHQGSGAAPAGIQAPPQSAAKPGLHFIDQHRAALIARVTNVEWLLDALYGKVLTDEQYQAVRAEPTNPSKMRKLFSFTPAWNWTCKDLLLQALRESQSYLVEDLERS

The next lines start with the variant.

Row | Variant | effect of a mutation on the interaction
10 | MGRARDAILDALANLTAEELKKFKLKLLSVPLREGYGRIPRGALLSMDALDLTDKLVSFYLETYGAELTANVLRDMGLQEMAGQLQAATHQGSGAAPAGIQAPPQSAAKPGLHFIDQHRAALIARVTNVEWLLDALYGKVLTDEQYQAVRAEPTNPSKMRKLFSFTPAWNWTCKDLLLQALRESQSYLVEDLERS | disrupting interaction strength
11 | MGRARDAILDALENLTAEELKKFKLKLLSVPLREGYGAIPRGALLSMDALDLTDKLVSFYLETYGAELTANVLRDMGLQEMAGQLQAATHQGSGAAPAGIQAPPQSAAKPGLHFIDQHRAALIARVTNVEWLLDALYGKVLTDEQYQAVRAEPTNPSKMRKLFSFTPAWNWTCKDLLLQALRESQSYLVEDLERS | decreasing interaction strength
12 | MGAARDAILDALENLTAEELKKFKLKLLSVPLREGYGRIPRGALLSMDALDLTDKLVSFYLETYGAELTANVLRDMGLQEMAGQLQAATHQGSGAAPAGIQAPPQSAAKPGLHFIDQHRAALIARVTNVEWLLDALYGKVLTDEQYQAVRAEPTNPSKMRKLFSFTPAWNWTCKDLLLQALRESQSYLVEDLERS | with no effect
13 | MGRARDAILDALENLTAEELAKFKLKLLSVPLREGYGRIPRGALLSMDALDLTDKLVSFYLETYGAELTANVLRDMGLQEMAGQLQAATHQGSGAAPAGIQAPPQSAAKPGLHFIDQHRAALIARVTNVEWLLDALYGKVLTDEQYQAVRAEPTNPSKMRKLFSFTPAWNWTCKDLLLQALRESQSYLVEDLERS | disrupting interaction strength
14 | MGRARDAILDALENLTAEELKKFKLKLLSVPLRAGYGRIPRGALLSMDALDLTDKLVSFYLETYGAELTANVLRDMGLQEMAGQLQAATHQGSGAAPAGIQAPPQSAAKPGLHFIDQHRAALIARVTNVEWLLDALYGKVLTDEQYQAVRAEPTNPSKMRKLFSFTPAWNWTCKDLLLQALRESQSYLVEDLERS | with no effect
15 | MGRARDAILAALENLTAEELKKFKLKLLSVPLREGYGRIPRGALLSMDALDLTDKLVSFYLETYGAELTANVLRDMGLQEMAGQLQAATHQGSGAAPAGIQAPPQSAAKPGLHFIDQHRAALIARVTNVEWLLDALYGKVLTDEQYQAVRAEPTNPSKMRKLFSFTPAWNWTCKDLLLQALRESQSYLVEDLERS | decreasing interaction strength
16 | MGRARDAILDALENLTAAELKKFKLKLLSVPLREGYGRIPRGALLSMDALDLTDKLVSFYLETYGAELTANVLRDMGLQEMAGQLQAATHQGSGAAPAGIQAPPQSAAKPGLHFIDQHRAALIARVTNVEWLLDALYGKVLTDEQYQAVRAEPTNPSKMRKLFSFTPAWNWTCKDLLLQALRESQSYLVEDLERS | with no effect
